Drawing on patent US8557816B2, “Aurora kinase modulators and method of use” (Amgen Inc., priority 2007, dated 2013), this text covers IC50 for 2 molecules.

The chains behind the UniProt entries cited, without tags or fusion partners. Residues count along the entry.
UniProt O14965, 133-383 limits assumed: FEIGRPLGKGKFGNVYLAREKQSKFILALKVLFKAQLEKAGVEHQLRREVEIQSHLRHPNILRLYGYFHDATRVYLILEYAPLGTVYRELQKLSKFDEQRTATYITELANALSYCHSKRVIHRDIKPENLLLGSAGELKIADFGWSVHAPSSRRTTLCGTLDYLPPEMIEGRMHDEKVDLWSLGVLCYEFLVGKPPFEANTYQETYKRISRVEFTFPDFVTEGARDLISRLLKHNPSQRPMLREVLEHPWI
UniProt Q9ULW0, 1-43 partner limits assumed: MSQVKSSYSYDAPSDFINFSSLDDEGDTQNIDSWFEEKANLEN

This test addresses AuroraA-TPX2 (Homo sapiens, UniProt O14965). In words: AuroraA-TPX2 Homogeneous Time Resolved Fluorescent (HTRF) kinase assay. To be noted: read-out: AurA_IC50_IP (uM Avg); average. For orientation: Time-resolved FRET reads energy transfer from a long-lived donor to a nearby acceptor.

In the case of `COc1cnc2c(Sc3ccc(Nc4nnc(-c5ccc(Cl)cc5)c5ccccc45)cn3)ccnc2c1`, the IC50 was 0.023 µM.

On to `COc1cnc2c(Sc3ccc(Nc4nnc(N5CCOCC5)c5ccccc45)cc3)ccnc2c1`, for which the IC50 stood at 0.294 µM.
